The record followed here is patent US20240043794A1, “Chemically Defined Serum Albumin Substitutes” (Life Technologies Corporation, priority 2020, published 2024).

The nature of data set [1]: Superoxide Dismutase (SOD) Colorimetric Activity Kit. Format: biochemical. On the procedure:
Various classes of antioxidant activity in albumins were investigated. Applicants first analyzed the superoxide dismutase (SOD) activity of various albumins, utilizing the Superoxide Dismutase (SOD) Colorimetric Activity Kit (Thermo Fisher Scientific, Waltham, MA), according to the manufacturer's protocol. Briefly, SOD activity was assessed utilizing an assay comprising the reaction of a substrate and Xanthine Oxidase to form superoxide (O^−2), the levels of which are decreased by SOD activity.
Next, the ability of chemically defined components to replace SOD antioxidant activity was tested. Mito-Tempo, which scavenges O2•^− in mitochondria, was compared with HSA for its ability to reduce superoxide, as assessed using the Superoxide Dismutase (SOD) Colorimetric Activity Kit (Thermo Fisher Scientific, Waltham, MA), according to the manufacturer's protocol. […] Thus, this compound may be used to replicate and replace albumin SOD-like antioxidant functionality.

Data set [2] concerns HEK-293 cells. As to the kind of experiment: HEK-293 proliferation with rHSA and antioxidants, PRESTOBLUE
The settings on record: FIG. 18A. Type of data set: cell-based. On the procedure:
(§1) The antioxidants provided herein were assessed in compositions including albumin. Applicants investigated whether antioxidants may confer beneficial properties to cell cultures, in addition to reversing toxic features of albumins when used in combination. […] HEK-293 cells, when assessed with a PRESTOBLUE™ cell viability reagent (Thermo Fisher Scientific, Waltham, MA) according to the manufacturer's protocol.

Data set [3] deals with HeLa cells. In words: HeLa proliferation with rHSA and antioxidants. Format: cell-based. The settings on record: FIG. 18B. On the procedure:
as §1

Data set [4] concerns neuronal cell. In words: Interactions between B27 supplement components and albumins, neuronal cell viability. Conditions: B27-supplemented media. Format: cell-based. On the procedure: Next, interactions between different components of B27 supplement and various albumins were analyzed (FIGS. 1B-1J). The effect of these molecular interactions were also assessed for their effect on neuronal cell stability in cell culture. […] Further, X1 and X2 interactions with BSA became saturated when higher concentrations of BSA were titrated into culture. […] Results are illustrated in FIGS. 1B-1E. When a broad range of rHSA was tested in B27 supplemented cultures, it was shown that component X1 and competed with component X2 for rHSA binding.

Data set [5] in a line: Thiol-based antioxidant activity, Ellman's reagent (DTNB). Type of data set: biochemical. The source says: Albumin has a cysteine residue at position 34, which exists either as a free thiol or may form a disulfide bond with glutathione (GSH). Because glutathione peroxidase uses GSH as a reductant to remove H2O2, a powerful oxidizing agent that is potentially damaging to cells, albumins play a pivotal role in regulating intracellular levels of GSH. Using Ellman's reagent (DTNB, 5,5-dithio-bis-(2-nitrobenzoic acid)), which produces 1,3,5-Trinitrobenzene (TNB) in the presence of thiols, various albumins were tested for thiol-based antioxidant activity. […] Further, activity levels differed among the types and sources of albumins analyzed.
(In general: DTNB colorimetry detects thiols as they appear.)

Data set [6] is described as follows: Total antioxidant power, Ferric Antioxidant Status Detection Kit. Format: biochemical. Here is the method: The experiments described herein were performed to explore the physiological functions of albumins and to explore replacement of albumins with chemically defined components. First, antioxidant properties of albumins was analyzed. Total antioxidant power of various albumins was measured by the using the Ferric Antioxidant Status Detection Kit (Thermo Fisher Scientific, Waltham, MA), according to the manufacturer's protocol. […] As the use of plasma in culture media is source of blood origin contaminants, the elimination of serum and plasma is highly desirable.

On to “recombinant HSA derived from rice: recombinant human serum albumin derived from rice”, for which the SOD activity entry in data set [1] is on record as “highest antioxidant activity”.

For the substance rHSA: recombinant human serum albumin, in data set [2], the “toxicity to HEK-293 cells” value is recorded as “toxic”. Moreover, in data set [3], the “toxicity to HeLa cells” value was “toxic”. In data set [4], the “effect on neuronal viability of albumin interaction with X3 (Linoleic acid) and X4 (Linolenic acid)” value is listed as “negatively affected viability”.

As to “plasma HSA: human serum albumin from plasma”, the “GSH based (thiol) antioxidant activity” value in data set [5] is listed as “highest”. Besides, in data set [6], the total reducing power entry is recorded as “significantly higher level of reducing power compared to recombinant HSAs”.
